Measurements reported in PMC6553764 (PLoS ONE, 2019).

Experiments:
Details in all cases: both partners purified
[1] = molecular target: T1, Kap95 (UniProt Q06142 1-861); assay: SPR; FSFG6 immobilised via C-terminal Cys (GLC chip), low density 415 RU; association 60 s; 100 ul/min, TBT-PVP, 25 C; fit: one-to-one model
T1 construct: Kap95, a karyopherin transport factor; also called Kap95 without the GST domain
T1 sequence (looked up): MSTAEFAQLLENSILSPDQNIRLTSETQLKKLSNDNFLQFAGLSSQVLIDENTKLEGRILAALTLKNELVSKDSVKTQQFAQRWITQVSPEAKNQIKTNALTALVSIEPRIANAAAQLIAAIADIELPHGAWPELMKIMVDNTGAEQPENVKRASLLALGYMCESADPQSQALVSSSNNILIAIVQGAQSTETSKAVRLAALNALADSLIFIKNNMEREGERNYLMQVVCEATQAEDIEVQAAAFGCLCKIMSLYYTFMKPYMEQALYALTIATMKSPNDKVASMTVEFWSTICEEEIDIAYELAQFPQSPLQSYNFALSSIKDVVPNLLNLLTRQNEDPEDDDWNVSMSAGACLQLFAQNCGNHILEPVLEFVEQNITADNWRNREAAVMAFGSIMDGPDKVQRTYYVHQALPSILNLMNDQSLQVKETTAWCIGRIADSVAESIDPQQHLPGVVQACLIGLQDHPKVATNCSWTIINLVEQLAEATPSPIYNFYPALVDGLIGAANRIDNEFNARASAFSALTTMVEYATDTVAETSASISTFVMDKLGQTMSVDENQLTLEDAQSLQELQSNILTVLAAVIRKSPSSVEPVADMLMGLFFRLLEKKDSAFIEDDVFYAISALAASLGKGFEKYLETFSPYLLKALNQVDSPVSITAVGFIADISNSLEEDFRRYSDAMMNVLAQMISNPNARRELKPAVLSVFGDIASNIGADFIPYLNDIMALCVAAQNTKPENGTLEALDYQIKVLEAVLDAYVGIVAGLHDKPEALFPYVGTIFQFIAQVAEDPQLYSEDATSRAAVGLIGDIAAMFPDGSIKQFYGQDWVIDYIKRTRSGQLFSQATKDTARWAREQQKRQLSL

[2] = molecular target: T1, Kap95; assay: SPR; FSFG6 immobilised via C-terminal Cys (GLC chip), high density 791 RU; association 15 s; 100 ul/min, TBT-PVP, 25 C; fit: one-to-one model
[3] = molecular target: T1, Kap95; assay: SPR; FSFG6 immobilised via C-terminal Cys (GLC chip), high density 791 RU; association 60 s; 100 ul/min, TBT-PVP, 25 C; fit: one-to-one model
[4] = molecular target: T1, Kap95; assay: SPR; FSFG6 immobilised via C-terminal Cys (GLC chip), medium density 550 RU; association 30 s; 100 ul/min, TBT-PVP, 25 C; fit: one-to-one model
[5] = molecular target: T1, Kap95; assay: SPR; FSFG6 immobilised via C-terminal Cys (GLC chip), medium density 550 RU; association 60 s; 100 ul/min, TBT-PVP, 25 C; fit: one-to-one model
[6] = molecular target: T1, Kap95; assay: SPR; FSFG6 immobilised via C-terminal Cys (GLC chip), medium density 550 RU; association 120 s; 100 ul/min, TBT-PVP, 25 C; fit: one-to-one model
[7] = molecular target: T1, Kap95; assay: SPR; FSFG6 immobilised via C-terminal Cys (GLC chip), low density 415 RU; association 15 s; 100 ul/min, TBT-PVP, 25 C; Langmuir isotherm analysis
[8] = molecular target: T1, Kap95; assay: SPR; FSFG6 immobilised via C-terminal Cys (GLC chip), high density 791 RU; association 30 s; 100 ul/min, TBT-PVP, 25 C; Langmuir isotherm analysis
[9] = molecular target: T1, Kap95; assay: SPR; FSFG6 immobilised via C-terminal Cys (GLC chip), high density 791 RU; association 60 s; 100 ul/min, TBT-PVP, 25 C; Langmuir isotherm analysis
[10] = molecular target: T1, Kap95; assay: SPR; FSFG6 immobilised via C-terminal Cys (GLC chip), medium density 550 RU; association 15 s; 100 ul/min, TBT-PVP, 25 C; Langmuir isotherm analysis
[11] = molecular target: T1, Kap95; assay: SPR; FSFG6 immobilised via C-terminal Cys (GLC chip), low density 415 RU; association 15 s; 100 ul/min, TBT-PVP, 25 C; fit: one-to-one plus mass transport limitation model
[12] = molecular target: T1, Kap95; assay: SPR; FSFG6 immobilised via C-terminal Cys (GLC chip), low density 415 RU; association 120 s; 100 ul/min, TBT-PVP, 25 C; fit: one-to-one plus mass transport limitation model
[13] = molecular target: T1, Kap95; assay: SPR; FSFG6 immobilised via C-terminal Cys (GLC chip), medium density 550 RU; association 30 s; 100 ul/min, TBT-PVP, 25 C; fit: one-to-one plus mass transport limitation model
[14] = molecular target: T1, Kap95; assay: SPR; FSFG6 immobilised via C-terminal Cys (GLC chip), medium density 550 RU; association 60 s; 100 ul/min, TBT-PVP, 25 C; fit: one-to-one plus mass transport limitation model

B1: FSFG6-Cys-His6 (domain or fragment)
chain: not shown
modifications: conjugated to the sensor surface through the C-terminal cysteine (maleimide)
notes: Segment of Nsp1FG (S. cerevisiae Nsp1) with six repeats of the FxFG-type region, followed by an added Cys, LE and His6
A Kd [1] of 5.49 nM, a koff [1] of 0.00301 s⁻¹ and a kon [1] of 549000 M⁻¹ s⁻¹ were found for B1 in this work. The Kd [2] was 0.87 nM, the koff [2] was 0.00209 s⁻¹ and the kon [2] was 2.41e+06 M⁻¹ s⁻¹. For the same binder, the Kd [3] was 1.7 nM, the koff [3] was 0.0022 s⁻¹ and the kon [3] was 1.29e+06 M⁻¹ s⁻¹. It also gave a Kd [4] of 3.27 nM, a koff [4] of 0.00265 s⁻¹ and a kon [4] of 810000 M⁻¹ s⁻¹. For the same binder, the Kd [5] was 3.15 nM, the koff [5] was 0.00275 s⁻¹ and the kon [5] was 873000 M⁻¹ s⁻¹. The Kd [6] was 5.45 nM, the koff [6] was 0.0025 s⁻¹ and the kon [6] was 459000 M⁻¹ s⁻¹. The Kd [7] was 64.2 nM, the Kd [8] was 54.7 nM and the Kd [9] was 22.6 nM. For the same binder, the Kd [10] was 59.3 nM, the Kd [11] was 6.7 nM and the koff [11] was 0.00653 s⁻¹. The kon [11] was 975000 M⁻¹ s⁻¹, the Kd [12] was 28.3 nM and the koff [12] was 0.00326 s⁻¹. The kon [12] was 115000 M⁻¹ s⁻¹, the Kd [13] was 0.74 nM and the koff [13] was 0.0033 s⁻¹. For the same binder, the kon [13] was 4.45e+06 M⁻¹ s⁻¹, the Kd [14] was 2.49 nM and the koff [14] was 0.00386 s⁻¹. The kon [14] was 1.55e+06 M⁻¹ s⁻¹.
